Assay results reported in patent publication US7660677B2, “Method of designing physiologically active peptide and use thereof” (priority 2002, dated 2010).

The chains behind the UniProt entries cited, without tags or fusion partners. Residues count along the entry.
UniProt Q14790, 385-479 limits assumed, species assumed: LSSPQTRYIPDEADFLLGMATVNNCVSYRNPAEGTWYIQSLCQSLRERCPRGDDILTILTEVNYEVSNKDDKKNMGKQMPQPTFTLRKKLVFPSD
UniProt Q14790, 217-374 limits assumed, species assumed: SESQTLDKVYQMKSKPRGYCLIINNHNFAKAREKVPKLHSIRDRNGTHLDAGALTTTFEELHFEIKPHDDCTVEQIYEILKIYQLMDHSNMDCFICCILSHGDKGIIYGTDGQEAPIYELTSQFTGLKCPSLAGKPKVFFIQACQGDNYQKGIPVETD

Assays:
caspase-8 [1] = biological target: T1, caspase-8 (Homo sapiens, UniProt Q14790); assay: Actual measured Ki of aldehyde-type peptide inhibitors (Garcia-Calvo et al.); format: biochemical; details: converted from measured Ki by ΔG=RT ln Ki
caspase-8 [2] = biological target: T1, caspase-8; details: peptide of the aldehyde type; read-out: Ki, actual measured value; cited from earlier work

Obs. ΔG (caspase-8 [1]): -12.25 kcal/mol
Substance: Boc-IETD-CHO
Ki (caspase-8 [2]): 1.05 nM
